{
  "source": "patent US7678834B2",
  "about": "“Substituted 4-aminocyclohexanol compounds” (dated 2010)",
  "data": [
    {"tested_on": "NMRI mice", "assay": "Analgesia testing in the tail flick test on the mouse", "settings": "intravenously, action maximum 20 minutes after administration", "units": {"ED50": "mg/kg"}, "values": [
      {"compound": "CN(C)C1(Cc2ccccc2)CCC(O)(CCc2cccc(F)c2)CC1.Cl", "note": "(stereo not drawn)", "ED50": 0.059},
      {"compound": "CN(C)C1(Cc2ccccc2)CCC(O)(CCc2ccccc2F)CC1.Cl", "note": "(stereo not drawn)", "ED50": 0.055},
      {"compound": "CN(C)C1(Cc2cccc(F)c2)CCC(O)(CCc2ccccc2)CC1.Cl", "note": "(stereo not drawn)", "ED50": 0.089},
      {"compound": "CN(C)C1(Cc2cccc(F)c2)CCC(O)(Cc2ccccc2)CC1.Cl", "note": "(stereo not drawn)", "ED50": 0.028},
      {"compound": "Cl.OC1(CCc2ccccc2)CCC(Cc2ccccc2)(N2CCCC2)CC1", "note": "(stereo not drawn)", "ED50": 0.15},
      {"compound": "CN(C)C1(Cc2ccccc2)CCC(O)(c2cc3ccccc3s2)CC1", "note": "(stereo not drawn)", "ED50": 0.04}
    ]}
  ]
}
